Results on 27 molecules are retold here after PubChem BioAssay (EPA / NIEHS).

Structures are written as SMILES. The list shows a part of the results, in another mix than the full data. Activity calls are given as the source filed them. The calls were made as follows: active = hit-call score of the fitted dose curve at least 0.9, where 1 is the maximum; inactive = score below 0.9.

The assay in a line: ATG_RORE_CIS: Attagene CIS-FACTORIAL HepG2 Assay for human RAR-related Orphan Receptor Element (RORE) (AID 2282959). The following applies: HepG2 Attagene cis-factorial RORE reporter, mRNA; actives raise or lower the signal.
`Cc1noc(NS(=O)(=O)c2ccc(N)cc2)c1C`: the molecule was classed as inactive.
The AC50 is the concentration at which the activity in the assay is half-maximal. Consider `COc1ccc(-c2coc3cc(O)cc(O)c3c2=O)cc1`, for which the concentration at half-maximal activity (AC50) is active: 21.4 µM.
`CCOC(=O)NNc1nncc2ccccc12`: the result was inactive.
Still for that read-out and setting: for `O=C(C(=O)c1ccccc1)c1ccccc1` the value was “inactive”; for `NNS(=O)(=O)c1ccc(Oc2ccc(S(=O)(=O)NN)cc2)cc1`, “inactive”.
For `CCC(C)(O)CCCC(C)C` (configuration not stated), the result was inactive.
`CCCCCC1C(=O)CCC1CC(=O)OC` (configuration not stated): the outcome was inactive.
Same read-out and setting: for `C=C(C)C(=O)OCCOC(=O)CC(C)=O` the value was “inactive”.
Turning to `CCCOC(=O)c1c(Cl)c(Cl)c(Cl)c(Cl)c1C(=O)OCCC`, the call was inactive.
On the same count and under the same terms, to `CC(C)(CO)[C@@H](O)C(=O)NCCC(=O)O` belongs “inactive”; to `COc1cc(Cl)c(OC)cc1N`, “inactive”.
The same measure, in the same setting: for `NCCCN1CCN(CCCN)CC1` the value was “inactive”.
On the same count and under the same terms, for `C=C(C)C(=O)OCCOCCOC(=O)C(=C)C` the value was “inactive”.
For the molecule `c1ccc(-c2nc3ccccc3[nH]2)cc1`, the molecule was classed as inactive.
The same measure, in the same setting: to `OCCN1CCNCC1` belongs “inactive”; to `CC(C)(C)c1cccc(O)c1`, “inactive”; to `C1CN(SSN2CCOCC2)CCO1`, “inactive”.
In the case of `Cc1ccc2oc(=O)ccc2c1`, the result was inactive.
As for `CCCCCCCCCCC=CC#N`, the call was inactive.
The same measure, in the same setting: to `CCCCCCOCCO` belongs “inactive”.
`COC(OC)(C(=O)c1ccccc1)c1ccccc1`: the AC50 was active: 41.8 µM.
Consider `O=S(=O)(O)CCCN1CCOCC1`, for which the molecule was classed as inactive.
Same read-out and setting: to `C=CCCC(=O)/C=C/C1C(C)=CCCC1(C)C` (configuration not stated) belongs “inactive”.
Consider `C=CC(=O)OCCCCCCOC(=O)C=C`, for which the AC50 was active: 40.1 µM.
Turning to `CCc1cccc(CC)c1`, the call was inactive.
Turning to `Nc1ccc2cc(S(=O)(=O)O)cc(O)c2c1N=Nc1ccccc1C(F)(F)F`, the outcome was inactive.
The same measure, in the same setting: to `CCC(C)(C)C1CCC(O)CC1` (configuration not stated) belongs “inactive”.
